The experiment addresses T1, mushroom tyrosinase (Agaricus bisporus, UniProt C7FF04).
T1 construct: purchased Sigma-Aldrich
The experiment can be described thus: Mushroom tyrosinase inhibition assay (L-DOPA, dopachrome 475 nm). The experiment is classed as biochemical. The method, then:
The mushroom tyrosinase (Sigma-Aldrich) inhibition was performed following previously reported methods. […] The inhibitor solutions were prepared in DMSO with an initial concentration of 1 mM. Different aliquots were added to the solution containing the buffer, L-DOPA, and EDTA, with the enzyme being added last. […] Ascorbic acid was used as a reference inhibitor with an initial concentration of 1 mM. The IC50 values were calculated from the equation generated via exponential fit of the experimental data.

Amino acid sequences for entries named in this document (tags omitted). Residues count along the entry.
UniProt C7FF04, 1-392 limits assumed: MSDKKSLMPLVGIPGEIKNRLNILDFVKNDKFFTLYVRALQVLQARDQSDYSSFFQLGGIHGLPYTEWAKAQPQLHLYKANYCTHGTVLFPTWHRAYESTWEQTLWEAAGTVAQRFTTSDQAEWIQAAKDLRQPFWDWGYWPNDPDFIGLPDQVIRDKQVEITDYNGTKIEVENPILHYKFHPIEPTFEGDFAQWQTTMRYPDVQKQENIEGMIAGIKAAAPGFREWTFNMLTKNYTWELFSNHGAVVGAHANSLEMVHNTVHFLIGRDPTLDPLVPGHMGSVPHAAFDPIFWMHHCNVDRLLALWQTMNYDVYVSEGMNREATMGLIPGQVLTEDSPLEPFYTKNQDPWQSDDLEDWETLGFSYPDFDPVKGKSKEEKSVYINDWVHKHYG

Setting [1] is: L-DOPA 0.17 mM, pH 6.8, room temperature, read-out: IC50 ± SD mushroom tyrosinase.

Like-named read-outs stand apart in the source and are kept apart here.

The results in this text go back to paper PMC11477717, “Synthesis of Carborane–Thiazole Conjugates as Tyrosinase and 11β-Hydroxysteroid Dehydrogenase Inhibitors: Antiproliferative Activity and Molecular Docking Studies” (Molecules, 2024).

Consider “4-(2-(2-(1,2-Dicarba-closo-Dodecaboranylmethylene)Hydrazinyl)Thiazol-4-yl)Benzene-1-Sulfonyl Fluoride [4j]”, for which the IC50 (as a rule, the concentration that inhibits the measured activity by half) under setting [1] worked out at 0.361 ± 0.119 mM. In the case of “4-(2-(2-(1,2-Dicarba-closo-Dodecaboranylmethylene)Hydrazinyl)Thiazol-4-yl)Benzonitrile [4h]”, the IC50 was determined as 0.0113 ± 0.0059 mM under setting [1] and 0.011 mM (rounded values in SAR summary, unit mM, read-out: IC50 tyrosinase inhibition).
